Laboratory results taken from patent US9464084B2, “P2X7 modulators” (Janssen Pharmaceutica NV, priority 2013, dated 2016).

Amino acid sequences for entries named in this document (tags omitted). A change or cut given only in a name is not applied to a line headed by its entry.
UniProt Q64663: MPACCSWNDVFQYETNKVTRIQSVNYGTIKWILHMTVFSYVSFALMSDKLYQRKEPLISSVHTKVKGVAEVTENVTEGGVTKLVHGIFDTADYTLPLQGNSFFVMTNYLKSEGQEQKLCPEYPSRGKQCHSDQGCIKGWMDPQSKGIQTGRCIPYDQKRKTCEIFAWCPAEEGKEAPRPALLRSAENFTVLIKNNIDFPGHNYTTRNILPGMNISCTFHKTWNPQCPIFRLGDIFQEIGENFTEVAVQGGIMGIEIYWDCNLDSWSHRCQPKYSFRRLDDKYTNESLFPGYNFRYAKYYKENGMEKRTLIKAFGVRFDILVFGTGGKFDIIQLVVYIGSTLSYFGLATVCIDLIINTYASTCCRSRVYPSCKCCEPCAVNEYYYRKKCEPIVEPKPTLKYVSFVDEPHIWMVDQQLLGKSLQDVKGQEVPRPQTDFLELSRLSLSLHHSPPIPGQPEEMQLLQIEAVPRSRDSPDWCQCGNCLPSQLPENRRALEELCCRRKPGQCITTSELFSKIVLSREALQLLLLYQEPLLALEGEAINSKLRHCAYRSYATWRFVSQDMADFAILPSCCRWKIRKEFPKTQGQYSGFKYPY
UniProt Q99572: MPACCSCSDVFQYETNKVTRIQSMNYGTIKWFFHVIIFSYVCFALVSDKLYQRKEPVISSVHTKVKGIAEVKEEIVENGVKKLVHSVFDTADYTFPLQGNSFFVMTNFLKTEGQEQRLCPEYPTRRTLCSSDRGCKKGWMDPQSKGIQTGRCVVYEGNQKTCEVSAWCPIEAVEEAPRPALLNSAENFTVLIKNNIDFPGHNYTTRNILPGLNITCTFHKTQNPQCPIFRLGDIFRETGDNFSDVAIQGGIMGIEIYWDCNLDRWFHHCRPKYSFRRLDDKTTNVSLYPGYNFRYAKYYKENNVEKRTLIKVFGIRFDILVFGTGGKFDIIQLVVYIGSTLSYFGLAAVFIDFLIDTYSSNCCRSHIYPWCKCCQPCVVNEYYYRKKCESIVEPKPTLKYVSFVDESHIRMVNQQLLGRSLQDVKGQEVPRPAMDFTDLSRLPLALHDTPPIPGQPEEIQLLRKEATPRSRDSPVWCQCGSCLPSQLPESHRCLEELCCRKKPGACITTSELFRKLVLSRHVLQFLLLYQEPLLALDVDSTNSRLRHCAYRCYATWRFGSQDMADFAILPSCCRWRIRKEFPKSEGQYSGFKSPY

Assays:
rat P2X7 [1] = target: T1, rat P2X7 (Rattus norvegicus (Rat), UniProt Q64663); assay: Radioligand binding, tritiated A-804598, rat P2X7-1321N1 cell membranes; details: 1 hour at 4° C.
P2X7 [2] = target: T2, P2X7 (Homo sapiens (Human), UniProt Q99572); assay: Radioligand binding, tritiated A-804598, human P2X7-1321N1 cell membranes; details: 1 hour at 4° C.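 Note: ki obtained from the binding IC50 after correction for tracer concentration and tracer affinity.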
P2X7 [3] = target: T2, P2X7; assay: P2X7 antagonism in human whole blood (LPS + Bz-ATP induced IL-1β release, ELISA); format: cell-based; details: LPS 30 ng/ml, Bz-ATP 1 mM
P2X7 [4] = target: T2, P2X7; assay: Ca2+ flux (FLIPR) in 1321N1 cells expressing recombinant human P2X7 channel; format: cell-based; details: 250 μM BzATP;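 note: Calcium-4 dye-loaded cells exposed to compound for 30 min before agonist addition, fluorescence change read 180 s after agonist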
rat P2X7 [5] = target: T1, rat P2X7; assay: Ca2+ flux (FLIPR) in 1321N1 cells expressing recombinant rat P2X7 channel; format: cell-based; details: 250 μM BzATP;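 note: Calcium-4 dye fluorescence change read 180 s after agonist addition, following 30 min cell preincubation with test compound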

Ki (rat P2X7 [1]) [nM]	Ki (P2X7 [2]) [nM]	IC50 (P2X7 [3]) [nM]	IC50 (P2X7 [4]) [nM]	IC50 (rat P2X7 [5]) [nM]	SMILES
7.8	7.1	92	4		C[C@@H]1c2ncn(-c3ccc(F)cn3)c2CCN1C(=O)c1cccc(C(F)(F)F)c1Cl (single isomer, unassigned) [Example 40, (R*)-(2-chloro-3-(trifluoromethyl)phenyl)(1-(5-fluoropyridin-2-yl)-4-methyl-6,7-dihydro-1H-imidazo[4,5-c]pyridin-5(4H)-yl)methanone]
	126	1590	22.3	671	CC1c2ncn(-c3ccc(F)cn3)c2CCN1C(=O)c1cccc(C(F)(F)F)c1Cl (centres unmarked) [Example 11, (2-Chloro-3-(trifluoromethyl)phenyl)(1-(5-fluoropyridin-2-yl)-4-methyl-6,7-dihydro-1H-imidazo[4,5-c]pyridin-5(4H)-yl)methanone]
		79		8.7	O=C(c1cccc(C(F)(F)F)c1Cl)N1CCc2c(nnn2-c2ncccn2)C1 [Example 65, 5-{[2-Chloro-3-(trifluoromethyl)phenyl]carbonyl}-1-pyrimidin-2-yl-4,5,6,7-tetrahydro-1H-[1,2,3]triazolo[4,5-c]pyridine]
		63			COc1ccnc(-n2nnc3c2CCN(C(=O)c2cccc(C(F)(F)F)c2Cl)C3)c1 [Example 136, (2-Chloro-3-(trifluoromethyl)phenyl)(1-(4-methoxypyridin-2-yl)-6,7-dihydro-1H-[1,2,3]triazolo[4,5-c]pyridin-5(4H)-yl)methanone]
